In patent US10301371B2, “Cyclic monomer and dimer peptides having integrin antagonist activity” (Protagonist Therapeutics, Inc., priority 2014, dated 2019):

Target: T1, rh integrin α4β7 (Homo sapiens, UniProt P13612+P26010, DEL724-798)
T1 construct: purchased R&D Systems 5397-A30
T1 sequence (P13612 34-977 limits assumed): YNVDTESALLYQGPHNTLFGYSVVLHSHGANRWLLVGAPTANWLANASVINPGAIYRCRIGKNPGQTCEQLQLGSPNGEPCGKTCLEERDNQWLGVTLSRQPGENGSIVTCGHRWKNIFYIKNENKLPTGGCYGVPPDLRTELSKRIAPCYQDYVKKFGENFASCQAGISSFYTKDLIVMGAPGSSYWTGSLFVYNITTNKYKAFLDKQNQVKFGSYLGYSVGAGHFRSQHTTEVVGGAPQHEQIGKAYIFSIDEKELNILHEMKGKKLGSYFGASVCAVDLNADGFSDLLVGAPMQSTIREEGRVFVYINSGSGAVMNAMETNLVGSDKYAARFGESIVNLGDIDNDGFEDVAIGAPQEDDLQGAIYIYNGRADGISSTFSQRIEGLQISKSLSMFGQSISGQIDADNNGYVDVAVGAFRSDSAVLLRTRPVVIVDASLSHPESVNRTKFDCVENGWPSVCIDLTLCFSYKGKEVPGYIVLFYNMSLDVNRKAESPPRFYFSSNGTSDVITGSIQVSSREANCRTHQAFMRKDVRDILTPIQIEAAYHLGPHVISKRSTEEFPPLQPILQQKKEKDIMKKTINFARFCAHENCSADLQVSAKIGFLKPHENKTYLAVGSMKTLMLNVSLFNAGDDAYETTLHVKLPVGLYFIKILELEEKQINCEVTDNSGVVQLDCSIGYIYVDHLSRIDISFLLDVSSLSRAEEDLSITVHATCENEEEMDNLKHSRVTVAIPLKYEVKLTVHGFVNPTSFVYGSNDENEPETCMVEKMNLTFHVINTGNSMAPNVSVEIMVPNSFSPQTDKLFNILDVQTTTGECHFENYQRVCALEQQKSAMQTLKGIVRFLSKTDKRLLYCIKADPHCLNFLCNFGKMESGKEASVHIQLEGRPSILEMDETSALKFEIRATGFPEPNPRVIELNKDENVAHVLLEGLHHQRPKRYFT
T1 sequence (P26010 20-723 limits assumed): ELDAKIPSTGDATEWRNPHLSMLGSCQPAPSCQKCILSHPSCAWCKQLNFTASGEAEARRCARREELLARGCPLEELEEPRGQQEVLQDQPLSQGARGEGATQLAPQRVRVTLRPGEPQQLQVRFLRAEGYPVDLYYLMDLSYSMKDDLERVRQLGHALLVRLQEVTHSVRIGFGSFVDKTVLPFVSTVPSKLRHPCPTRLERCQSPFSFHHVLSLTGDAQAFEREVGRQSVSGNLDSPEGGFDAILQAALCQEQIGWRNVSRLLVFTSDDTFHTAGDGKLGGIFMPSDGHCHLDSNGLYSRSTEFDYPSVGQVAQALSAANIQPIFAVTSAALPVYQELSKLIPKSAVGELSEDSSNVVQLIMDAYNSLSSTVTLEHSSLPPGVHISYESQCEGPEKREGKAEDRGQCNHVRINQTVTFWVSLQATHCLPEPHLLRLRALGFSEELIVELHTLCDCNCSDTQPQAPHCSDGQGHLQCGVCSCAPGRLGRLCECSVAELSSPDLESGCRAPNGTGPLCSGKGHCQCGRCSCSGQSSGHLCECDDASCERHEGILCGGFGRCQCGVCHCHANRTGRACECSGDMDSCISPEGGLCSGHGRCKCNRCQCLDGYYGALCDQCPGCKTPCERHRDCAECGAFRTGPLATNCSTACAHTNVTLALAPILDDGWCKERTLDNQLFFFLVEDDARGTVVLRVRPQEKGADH
Assay: α4β7-MAdCAM Competition ELISA
Type: binding
Conditions: potency, read-out: ELISA a4b7
Protocol: α4β7-MAdCAM Competition ELISA
A nickel coated plate (Pierce #15442) is coated with rh integrin α4β7 (R&D Systems #5397-A30) at 800 ng/well and incubated at room temperature with shaking for 1 hr. The solution iss then remove by shaking and blocked with assay buffer (50 mM Tris-HCl pH7.6, 150 mM NaCl, 1 mM MnCl2 or MgCl2, 0.05% Tween-20 and 0.5% BSA) at 250 ul/well. The plate was then incubated at room temperature for 1 hr. Each well was washed 3 times with wash buffer (50 mM Tris-HCl pH7.6, 100 mM NaCl, 1 mM MnCl2 or MgCl2, 0.05% Tween-20). To each well was added 25 ul of a serial dilution (3-fold dilutions in assay buffer) of peptides starting at 20 μM. 25 ul of recombinant human MAdCAM-1 (R&D Systems #6056-MC) was then added to each well at a fixed concentration 20 nM. The final starting peptide concentration was 10 μM, and the final MAdCAM-1 concentration was 10 nM. The plates were then incubated at room temperature for 1 hr to reach binding equilibrium. The wells were then washed three times with wash buffer. 50 ul of mouse antihuman IgG1-HRP (Invitrogen # A10648) diluted in 1:2000 in assay buffer was then added to each well. The wells are incubated at room temperature for 45 min with shaking. The wells were then washed 3 times with wash buffer. 100 ul of TMB were then added to each well and closely observe during development time. The reaction was stopped with 2N H2SO4 and absorbance was read at 450 nm.

Row | Compound | IC50 [nM]
1 | CC(C)C[C@@H]1NC(=O)[C@H]([C@@H](C)O)NC(=O)[C@H](CC(=O)O)NC(=O)[C@H](CO)NC(=O)[C@H](CCCNC(=N)N)N(C)C(=O)[C@@H](C)NC(=O)[C@@H](CCC(=O)O)NC1=O [compound 484] | 100 to 1000
2 | CC(C)C[C@@H]1NC(=O)[C@H]([C@@H](C)O)NC(=O)[C@H](CC(=O)O)NC(=O)[C@H](CO)NC(=O)[C@H](CCCNC(=N)N)N(C)C(=O)[C@@H](C)NC(=O)[C@@H](CC(N)=O)NC1=O [compound 479] | 100 to 1000
3 | CC(C)C[C@@H]1NC(=O)[C@H]([C@@H](C)O)NC(=O)[C@H](CC(=O)O)NC(=O)[C@H](CO)NC(=O)[C@H](CCCNC(=N)N)N(C)C(=O)[C@@H](Cc2ccccc2)NC(=O)[C@@H](C)NC1=O [compound 495] | 100 to 1000
4 | CC(C)C[C@@H]1NC(=O)[C@H]([C@@H](C)O)NC(=O)[C@H](CC(=O)O)NC(=O)[C@H](CO)NC(=O)[C@H](CCCNC(=N)N)N(C)C(=O)[C@@H](C)NC(=O)[C@@H](C)NC1=O [compound 477] | 100 to 1000
